Reference: paper PMC3961306, “Comparison of the Cancer Gene Targeting and Biochemical Selectivities of All Targeted Kinase Inhibitors Approved for Clinical Use” (PLoS ONE, 2014)

By UniProt entry, the sequences of proteins in these tests, tags left out. Residues count along the entry.
UniProt P17948, 27-1338, stated change not applied: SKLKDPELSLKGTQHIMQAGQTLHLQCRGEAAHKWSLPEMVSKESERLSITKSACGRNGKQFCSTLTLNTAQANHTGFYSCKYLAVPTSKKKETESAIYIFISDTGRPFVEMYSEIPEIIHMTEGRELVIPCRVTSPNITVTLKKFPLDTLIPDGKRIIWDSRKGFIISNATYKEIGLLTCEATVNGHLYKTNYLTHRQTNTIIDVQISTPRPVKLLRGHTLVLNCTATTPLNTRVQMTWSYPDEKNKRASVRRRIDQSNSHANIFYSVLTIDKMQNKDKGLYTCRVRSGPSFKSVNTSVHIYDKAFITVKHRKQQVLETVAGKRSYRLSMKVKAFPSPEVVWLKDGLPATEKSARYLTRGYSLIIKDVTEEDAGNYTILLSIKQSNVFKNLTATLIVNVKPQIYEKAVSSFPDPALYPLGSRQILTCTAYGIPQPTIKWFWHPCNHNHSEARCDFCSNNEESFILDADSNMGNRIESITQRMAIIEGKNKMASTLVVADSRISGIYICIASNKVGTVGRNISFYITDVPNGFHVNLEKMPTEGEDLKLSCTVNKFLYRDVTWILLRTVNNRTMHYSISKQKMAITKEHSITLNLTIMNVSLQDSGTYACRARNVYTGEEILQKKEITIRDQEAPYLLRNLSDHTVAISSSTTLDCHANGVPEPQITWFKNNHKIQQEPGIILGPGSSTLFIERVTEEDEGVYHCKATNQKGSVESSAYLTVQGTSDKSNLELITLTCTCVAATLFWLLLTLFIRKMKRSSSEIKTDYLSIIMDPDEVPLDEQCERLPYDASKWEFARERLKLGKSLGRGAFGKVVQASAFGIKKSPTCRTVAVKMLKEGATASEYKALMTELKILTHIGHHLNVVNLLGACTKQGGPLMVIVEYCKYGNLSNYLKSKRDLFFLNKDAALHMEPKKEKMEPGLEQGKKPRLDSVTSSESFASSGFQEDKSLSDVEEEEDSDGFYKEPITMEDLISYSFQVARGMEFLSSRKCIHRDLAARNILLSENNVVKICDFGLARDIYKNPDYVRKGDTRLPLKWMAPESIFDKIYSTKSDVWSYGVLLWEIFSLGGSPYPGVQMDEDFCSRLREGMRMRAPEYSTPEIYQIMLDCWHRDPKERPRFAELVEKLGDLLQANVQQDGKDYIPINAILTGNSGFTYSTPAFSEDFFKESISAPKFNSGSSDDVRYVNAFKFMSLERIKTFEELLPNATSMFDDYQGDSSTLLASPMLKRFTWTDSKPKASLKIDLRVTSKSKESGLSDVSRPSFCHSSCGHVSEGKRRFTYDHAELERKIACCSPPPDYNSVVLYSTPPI
UniProt P49760, whole entry, stated change not applied: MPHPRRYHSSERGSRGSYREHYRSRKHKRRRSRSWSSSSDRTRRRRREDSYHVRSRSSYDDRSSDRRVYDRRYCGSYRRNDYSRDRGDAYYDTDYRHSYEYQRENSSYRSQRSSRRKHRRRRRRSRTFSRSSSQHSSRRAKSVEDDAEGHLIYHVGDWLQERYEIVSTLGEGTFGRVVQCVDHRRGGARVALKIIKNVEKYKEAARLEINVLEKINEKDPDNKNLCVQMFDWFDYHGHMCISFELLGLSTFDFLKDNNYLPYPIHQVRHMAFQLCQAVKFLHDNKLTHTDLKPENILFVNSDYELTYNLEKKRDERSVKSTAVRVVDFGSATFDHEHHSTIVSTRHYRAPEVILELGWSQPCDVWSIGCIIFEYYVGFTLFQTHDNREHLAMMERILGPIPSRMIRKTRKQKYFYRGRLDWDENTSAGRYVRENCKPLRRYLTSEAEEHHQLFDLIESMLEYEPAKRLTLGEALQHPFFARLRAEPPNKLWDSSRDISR
UniProt P50750, whole entry, stated change not applied: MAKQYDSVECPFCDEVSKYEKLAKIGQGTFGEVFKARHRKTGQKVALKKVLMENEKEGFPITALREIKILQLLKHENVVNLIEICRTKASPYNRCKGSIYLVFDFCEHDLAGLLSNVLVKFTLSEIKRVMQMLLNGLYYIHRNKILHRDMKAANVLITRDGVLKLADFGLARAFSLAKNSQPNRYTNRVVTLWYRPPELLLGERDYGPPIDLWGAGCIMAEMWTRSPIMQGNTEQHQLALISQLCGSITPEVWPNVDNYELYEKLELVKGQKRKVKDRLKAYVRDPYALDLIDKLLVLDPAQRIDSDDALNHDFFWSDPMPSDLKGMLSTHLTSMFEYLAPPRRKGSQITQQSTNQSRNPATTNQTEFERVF
UniProt Q9Y5S2, whole entry, stated change not applied: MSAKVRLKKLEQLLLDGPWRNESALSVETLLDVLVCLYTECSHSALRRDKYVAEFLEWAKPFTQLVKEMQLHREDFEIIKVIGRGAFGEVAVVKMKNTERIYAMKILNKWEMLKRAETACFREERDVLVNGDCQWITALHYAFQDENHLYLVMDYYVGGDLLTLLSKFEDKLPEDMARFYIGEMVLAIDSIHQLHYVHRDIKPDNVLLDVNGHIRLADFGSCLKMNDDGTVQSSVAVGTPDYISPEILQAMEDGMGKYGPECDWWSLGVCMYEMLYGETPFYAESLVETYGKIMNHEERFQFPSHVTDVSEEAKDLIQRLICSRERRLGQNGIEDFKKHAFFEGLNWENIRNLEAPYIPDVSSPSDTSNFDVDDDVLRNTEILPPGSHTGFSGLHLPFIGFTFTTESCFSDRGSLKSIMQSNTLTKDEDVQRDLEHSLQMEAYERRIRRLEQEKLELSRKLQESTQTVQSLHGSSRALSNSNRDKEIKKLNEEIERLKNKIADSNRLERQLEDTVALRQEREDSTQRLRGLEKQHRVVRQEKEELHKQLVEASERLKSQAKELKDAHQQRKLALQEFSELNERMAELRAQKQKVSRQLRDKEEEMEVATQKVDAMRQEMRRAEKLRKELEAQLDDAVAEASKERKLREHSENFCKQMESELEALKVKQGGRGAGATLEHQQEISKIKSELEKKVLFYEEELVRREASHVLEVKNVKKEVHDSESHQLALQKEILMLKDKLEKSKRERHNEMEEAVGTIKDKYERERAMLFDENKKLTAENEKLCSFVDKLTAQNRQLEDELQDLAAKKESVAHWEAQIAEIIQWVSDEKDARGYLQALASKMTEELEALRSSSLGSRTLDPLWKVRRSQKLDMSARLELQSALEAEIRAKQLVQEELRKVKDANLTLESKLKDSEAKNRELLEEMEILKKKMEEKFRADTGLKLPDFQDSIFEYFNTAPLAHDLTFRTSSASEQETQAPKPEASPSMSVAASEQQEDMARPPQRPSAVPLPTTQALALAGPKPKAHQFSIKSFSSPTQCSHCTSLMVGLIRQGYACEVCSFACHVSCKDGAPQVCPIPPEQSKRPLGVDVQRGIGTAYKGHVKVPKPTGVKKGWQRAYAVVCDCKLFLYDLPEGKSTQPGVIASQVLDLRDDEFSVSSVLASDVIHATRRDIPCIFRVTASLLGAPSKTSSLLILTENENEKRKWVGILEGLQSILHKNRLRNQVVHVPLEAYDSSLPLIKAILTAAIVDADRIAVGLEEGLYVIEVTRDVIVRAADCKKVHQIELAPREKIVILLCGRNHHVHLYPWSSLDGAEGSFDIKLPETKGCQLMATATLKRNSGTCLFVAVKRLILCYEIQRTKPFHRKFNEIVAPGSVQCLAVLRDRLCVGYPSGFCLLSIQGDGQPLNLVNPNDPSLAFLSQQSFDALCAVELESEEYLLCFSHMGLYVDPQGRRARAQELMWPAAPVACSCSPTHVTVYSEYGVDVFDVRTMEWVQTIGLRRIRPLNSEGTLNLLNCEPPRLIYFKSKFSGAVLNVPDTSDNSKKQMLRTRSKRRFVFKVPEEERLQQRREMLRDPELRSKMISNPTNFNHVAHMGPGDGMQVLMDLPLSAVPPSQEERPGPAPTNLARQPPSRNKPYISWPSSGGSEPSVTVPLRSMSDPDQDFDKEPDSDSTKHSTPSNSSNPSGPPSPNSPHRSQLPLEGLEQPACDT
UniProt P10721, 26-976, stated change not applied: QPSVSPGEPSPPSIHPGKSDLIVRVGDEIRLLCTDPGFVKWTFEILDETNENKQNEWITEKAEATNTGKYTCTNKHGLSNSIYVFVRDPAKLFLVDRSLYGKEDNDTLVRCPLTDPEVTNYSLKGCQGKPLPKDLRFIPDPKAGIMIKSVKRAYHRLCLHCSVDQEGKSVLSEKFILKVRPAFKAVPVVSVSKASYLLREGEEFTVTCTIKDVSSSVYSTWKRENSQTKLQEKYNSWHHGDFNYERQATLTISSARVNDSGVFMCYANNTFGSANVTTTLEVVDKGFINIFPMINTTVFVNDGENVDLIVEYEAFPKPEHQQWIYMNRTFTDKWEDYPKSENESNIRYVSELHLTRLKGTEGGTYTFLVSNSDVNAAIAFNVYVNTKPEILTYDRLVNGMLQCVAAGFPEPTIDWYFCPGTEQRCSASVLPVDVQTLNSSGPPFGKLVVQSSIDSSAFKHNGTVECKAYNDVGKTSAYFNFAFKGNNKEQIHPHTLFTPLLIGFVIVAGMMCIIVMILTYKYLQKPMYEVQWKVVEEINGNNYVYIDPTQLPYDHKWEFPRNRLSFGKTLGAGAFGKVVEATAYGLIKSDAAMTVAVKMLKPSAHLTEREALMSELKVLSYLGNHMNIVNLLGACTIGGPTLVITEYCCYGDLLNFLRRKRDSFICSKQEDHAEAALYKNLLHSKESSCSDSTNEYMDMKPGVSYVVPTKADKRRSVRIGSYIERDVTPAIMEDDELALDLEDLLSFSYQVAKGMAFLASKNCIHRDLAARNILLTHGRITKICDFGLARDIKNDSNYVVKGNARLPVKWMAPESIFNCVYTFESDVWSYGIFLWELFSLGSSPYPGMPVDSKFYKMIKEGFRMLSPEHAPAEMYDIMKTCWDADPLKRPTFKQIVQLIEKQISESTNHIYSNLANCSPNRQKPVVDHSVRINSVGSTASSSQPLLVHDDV
UniProt Q00526, whole entry, stated change not applied: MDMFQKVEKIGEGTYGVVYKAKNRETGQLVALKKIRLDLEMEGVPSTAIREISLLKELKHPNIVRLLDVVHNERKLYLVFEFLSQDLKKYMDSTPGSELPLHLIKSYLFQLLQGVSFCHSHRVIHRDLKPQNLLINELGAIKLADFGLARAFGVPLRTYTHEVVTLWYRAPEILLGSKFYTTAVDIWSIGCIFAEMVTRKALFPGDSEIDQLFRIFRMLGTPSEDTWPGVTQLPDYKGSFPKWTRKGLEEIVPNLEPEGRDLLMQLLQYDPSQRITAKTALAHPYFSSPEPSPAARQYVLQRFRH
UniProt Q9H2G2, whole entry, stated change not applied: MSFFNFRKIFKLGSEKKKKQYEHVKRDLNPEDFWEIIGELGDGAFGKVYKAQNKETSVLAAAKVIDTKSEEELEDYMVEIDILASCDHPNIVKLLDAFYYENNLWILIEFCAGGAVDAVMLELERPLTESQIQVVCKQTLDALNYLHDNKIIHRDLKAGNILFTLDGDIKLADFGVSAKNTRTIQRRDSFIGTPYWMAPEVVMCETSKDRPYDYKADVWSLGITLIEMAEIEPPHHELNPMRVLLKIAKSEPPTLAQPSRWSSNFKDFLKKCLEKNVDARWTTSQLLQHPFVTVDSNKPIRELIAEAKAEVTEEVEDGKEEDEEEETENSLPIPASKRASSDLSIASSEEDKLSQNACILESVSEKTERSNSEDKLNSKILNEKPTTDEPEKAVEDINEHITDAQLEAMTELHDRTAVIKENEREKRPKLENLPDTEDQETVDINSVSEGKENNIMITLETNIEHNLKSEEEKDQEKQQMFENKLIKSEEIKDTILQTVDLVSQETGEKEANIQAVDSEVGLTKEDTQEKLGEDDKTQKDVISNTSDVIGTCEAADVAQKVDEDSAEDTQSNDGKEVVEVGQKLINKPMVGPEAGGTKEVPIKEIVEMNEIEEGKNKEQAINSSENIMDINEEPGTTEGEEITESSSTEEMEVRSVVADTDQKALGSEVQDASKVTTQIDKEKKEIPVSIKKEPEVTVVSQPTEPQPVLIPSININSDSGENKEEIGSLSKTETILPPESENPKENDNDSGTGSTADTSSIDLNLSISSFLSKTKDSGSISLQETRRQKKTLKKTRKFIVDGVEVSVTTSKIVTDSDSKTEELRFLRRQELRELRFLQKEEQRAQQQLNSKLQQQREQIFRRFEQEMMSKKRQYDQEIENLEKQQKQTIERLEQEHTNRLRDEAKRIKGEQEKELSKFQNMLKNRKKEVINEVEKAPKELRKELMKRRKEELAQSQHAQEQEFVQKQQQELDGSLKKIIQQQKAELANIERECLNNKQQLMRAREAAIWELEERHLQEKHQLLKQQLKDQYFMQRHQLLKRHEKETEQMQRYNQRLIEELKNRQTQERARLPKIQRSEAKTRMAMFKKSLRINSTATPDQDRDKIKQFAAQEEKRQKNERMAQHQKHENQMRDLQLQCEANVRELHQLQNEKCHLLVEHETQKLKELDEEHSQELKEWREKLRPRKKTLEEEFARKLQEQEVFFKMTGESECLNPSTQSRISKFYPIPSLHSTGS

Legend:
Experiment in all cases: Kinase profiling in a biochemical assay panel (mobility shift assays and ELISA), %-inhibition at 1 μM; selectivity entropy
[1] = molecular target: panel of more than 300 wild-type and mutant kinases (313 kinase panel) (Homo sapiens, UniProt P49840)
[2] = molecular target: panel of more than 300 wild-type and mutant kinases (313 kinase panel) (Homo sapiens, UniProt Q9Y2H1)
[3] = molecular target: panel of more than 300 wild-type and mutant kinases (313 kinase panel) (Homo sapiens, UniProt P17948)
[4] = molecular target: panel of more than 300 wild-type and mutant kinases (313 kinase panel) (Homo sapiens, UniProt P49760)
[5] = molecular target: panel of more than 300 wild-type and mutant kinases (313 kinase panel) (Homo sapiens, UniProt P78362)
[6] = molecular target: panel of more than 300 wild-type and mutant kinases (313 kinase panel) (Homo sapiens, UniProt P50750)
[7] = molecular target: T1, panel of more than 300 wild-type and mutant kinases (313 kinase panel) (Homo sapiens, UniProt Q8IY84)
T1 sequence (Q8IY84 1-436): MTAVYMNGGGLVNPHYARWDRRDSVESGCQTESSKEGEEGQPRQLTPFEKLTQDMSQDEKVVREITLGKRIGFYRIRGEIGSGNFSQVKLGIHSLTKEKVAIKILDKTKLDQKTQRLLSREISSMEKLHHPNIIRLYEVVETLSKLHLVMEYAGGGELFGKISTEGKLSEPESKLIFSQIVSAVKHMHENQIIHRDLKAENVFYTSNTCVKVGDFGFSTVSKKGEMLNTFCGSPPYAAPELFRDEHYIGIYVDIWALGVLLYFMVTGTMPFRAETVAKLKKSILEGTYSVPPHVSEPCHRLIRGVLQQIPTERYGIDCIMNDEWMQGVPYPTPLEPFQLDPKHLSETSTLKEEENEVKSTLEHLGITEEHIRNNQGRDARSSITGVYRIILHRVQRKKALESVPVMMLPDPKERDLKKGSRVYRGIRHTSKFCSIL

[8] = molecular target: panel of more than 300 wild-type and mutant kinases (313 kinase panel) (Homo sapiens, UniProt Q9Y5S2)
[9] = molecular target: panel of more than 300 wild-type and mutant kinases (313 kinase panel) (Homo sapiens, UniProt Q13557)
[10] = molecular target: panel of more than 300 wild-type and mutant kinases (313 kinase panel) (Homo sapiens, UniProt P10721)
[11] = molecular target: panel of more than 300 wild-type and mutant kinases (313 kinase panel) (Homo sapiens, UniProt Q15418)
[12] = molecular target: panel of more than 300 wild-type and mutant kinases (313 kinase panel) (Homo sapiens, UniProt O00311)
[13] = molecular target: panel of more than 300 wild-type and mutant kinases (313 kinase panel) (Homo sapiens, UniProt Q00526)
[14] = molecular target: T2, panel of more than 300 wild-type and mutant kinases (313 kinase panel) (Homo sapiens, UniProt Q96BR1)
T2 sequence (Q96BR1 1-496): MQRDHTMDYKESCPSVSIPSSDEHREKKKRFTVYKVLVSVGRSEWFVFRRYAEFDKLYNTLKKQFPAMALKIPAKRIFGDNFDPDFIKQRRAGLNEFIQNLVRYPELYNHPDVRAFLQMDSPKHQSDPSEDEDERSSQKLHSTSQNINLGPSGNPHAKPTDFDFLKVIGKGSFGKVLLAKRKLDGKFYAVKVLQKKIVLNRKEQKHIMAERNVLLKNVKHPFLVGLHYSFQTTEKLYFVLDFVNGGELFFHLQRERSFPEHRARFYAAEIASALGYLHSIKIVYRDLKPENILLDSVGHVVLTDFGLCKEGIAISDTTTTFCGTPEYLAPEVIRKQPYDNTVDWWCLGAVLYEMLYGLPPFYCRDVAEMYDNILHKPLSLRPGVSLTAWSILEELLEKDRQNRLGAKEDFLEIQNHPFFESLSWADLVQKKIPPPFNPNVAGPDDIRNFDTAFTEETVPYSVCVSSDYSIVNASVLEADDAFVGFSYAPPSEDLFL

[15] = molecular target: panel of more than 300 wild-type and mutant kinases (313 kinase panel) (Homo sapiens, UniProt Q9H2G2)
[16] = molecular target: panel of more than 300 wild-type and mutant kinases (313 kinase panel) (Homo sapiens, UniProt Q13153)

SMILES | %-inhibition of GSK3α ([1]; 1 µM) [%] | %-inhibition of NDR2 ([2]; 1 µM) [%] | %-inhibition of FLT1 ([3]; 1 µM) [%] | %-inhibition, CLK2 ([4]; 1 µM) [%] | %-inhibition of SRPK2 ([5]; 1 µM) [%] | %-inhibition, CDK9/CycT1 ([6]; 1 µM) [%] | %-inhibition of MGC42105 ([7]; 1 µM) [%] | %-inhibition of MRCKβ ([8]; 1 µM) [%] | %-inhibition, CaMK2δ ([9]; 1 µM) [%] | %-inhibition of KIT ([10]; 1 µM) [%] | %-inhibition of RSK1 ([11]; 1 µM) [%] | %-inhibition, CDC7/ASK ([12]; 1 µM) [%] | %-inhibition, CDK3/CycE1 ([13]; 1 µM) [%] | %-inhibition of SGK3 ([14]; 1 µM) [%] | %-inhibition of SLK ([15]; 1 µM) [%] | %-inhibition of PAK1 ([16]; 1 µM) [%] | other results
CNC(=O)c1ccccc1Sc1ccc2c(/C=C/c3ccccn3)n[nH]c2c1 [axitinib] | – | – | – | – | – | – | – | – | – | – | – | – | – | – | – | – | %-inhibition of GSK3α ([1]; kinase GSK3α, compound at 1 μM): 11%; %-inhibition of NDR2 ([2]; kinase NDR2, 1 μM): -2%; %-inhibition of FLT1 ([3]; kinase FLT1, compound at 1 μM): 102%; %-inhibition, CLK2 ([4]; kinase CLK2, 1 μM compound): -3.71%; %-inhibition of SRPK2 ([5]; kinase SRPK2, 1 μM): -4%; %-inhibition, CDK9/CycT1 ([6]; kinase CDK9/CycT1, 1 μM compound): -1.79%; %-inhibition of MGC42105 ([7]; kinase MGC42105, 1 μM): -13%; %-inhibition of MRCKβ ([8]; kinase MRCKβ, 1 μM): 2.46%; %-inhibition, CaMK2δ ([9]; kinase CaMK2δ, 1 μM compound): 11%; %-inhibition of KIT ([10]; kinase KIT, compound at 1 μM): 99%; %-inhibition of RSK1 ([11]; kinase RSK1, 1 μM): 49%; %-inhibition, CDC7/ASK ([12]; kinase CDC7/ASK, 1 μM compound): -7%; %-inhibition, CDK3/CycE1 ([13]; kinase CDK3/CycE1, 1 μM compound): -10%; %-inhibition of SGK3 ([14]; kinase SGK3, 1 μM): -6%; %-inhibition of SLK ([15]; kinase SLK, 1 μM): 82%; %-inhibition of PAK1 ([16]; kinase PAK1, 1 μM): -6.53%
COc1cc2ncnc(Nc3ccc(F)c(Cl)c3)c2cc1OCCCN1CCOCC1 [gefitinib] | -6 | -5.66 | 14 | -7 | 3.46 | 0.25 | 0.704 | 0.477 | -16 | 36 | 13 | 4 | 3 | 2.35 | 73 | 10 | –
C[C@@H]1CCN(C(=O)CC#N)C[C@@H]1N(C)c1ncnc2[nH]ccc12 [tofacitinib] | 7 | 24 | 8.49 | -14 | -1.66 | -2.14 | -9 | 1.08 | 16 | 3.63 | 1.49 | -4 | -10 | -0.183 | 7 | -4.48 | –
